Test results: patent US9340577B2, “HLA binding motifs and peptides and their uses” (priority 1992, dated 2016)

Key:
Experiment in all cases: biochemical
A*3301 = A*3301 (Homo sapiens, UniProt P04439, A270S/D185E/E176V/E277Q/E87N/F33T/G231S/H175R/I121M/I218V/I322F/K168Q/K210R/L300P/L318F/M331R/P217A/Q86R/Q94H/R138Q/T323A/T345S/T97I/V358M/Y195H); format: binding
A*6801 = A*6801 (Homo sapiens, UniProt P04439, A269V/D185E/E176V/E277Q/E87N/F33Y/G231S/I121M/I166T/I218V/L180W/L300P/L318F/N151K/P208A/P217A/Q86R/R169H/T345S); format: binding
A31 (A*3101) = A31 (A*3101) (Homo sapiens, UniProt P04439, A270S/D185E/E176V/E277Q/F33T/G231S/G80R/H175R/I121M/I218V/I322F/K168Q/L300P/L318F/M331R/P217A/Q94H/R138Q/T323A/T345S/T97I/V358M); format: binding
HLA-A3.2 (A*0301) = HLA-A3.2 (A*0301) (Homo sapiens, UniProt P04439); format: binding
HLA-A11 (A*1101) = HLA-A11 (A*1101) (Homo sapiens, UniProt P04439, A114D/D185E/E176A/F33Y/L180Q/S129P/T187R); format: binding
DRB1*0802 = DRB1*0802 (Homo sapiens, UniProt P01903+P01911, A100R/A103L/A169T/F76Y/H45Y/I96F/K41T/L162R/M171V/P40S/Q125H/Q178H/Q39Y/Q99D/R218S/R42G/S66Y/V115G/W38E)
HLA-A1 (A*0101) = HLA-A1 (A*0101) (Homo sapiens, UniProt P04439, A114D/A174V/A182V/D101N/D185E/E176A/E190D/L180R/Q94H/R68K/S129P/T187R/V100A/V91M/W191G)

CC[C@H](C)[C@H](N)C(=O)N[C@H](C(=O)N[C@@H](Cc1ccc(O)cc1)C(=O)N[C@@H](CCCNC(=N)N)C(=O)N[C@@H](CC(=O)O)C(=O)NCC(=O)N[C@@H](CC(N)=O)C(=O)N1CCC[C@H]1C(=O)N[C@@H](Cc1ccc(O)cc1)C(=O)O)C(C)C [Peptide 78.0272]
IC50 (A*3301): > 20000 nM | IC50 (A*6801): 3760 nM | IC50 (A31 (A*3101)): > 20000 nM | IC50 (HLA-A3.2 (A*0301)): 76 nM

CC(C)C[C@H](NC(=O)[C@@H](NC(=O)[C@@H](N)[C@@H](C)O)[C@@H](C)O)C(=O)N[C@@H](CCC(=O)O)C(=O)N[C@@H](CCC(N)=O)C(=O)N[C@@H](CCC(N)=O)C(=O)N[C@@H](Cc1ccc(O)cc1)C(=O)N[C@@H](CC(N)=O)C(=O)N[C@@H](CCCCN)C(=O)O [Peptide 78.0273]
IC50 (HLA-A11 (A*1101)): 26 nM | IC50 (A*3301): 1350 nM | IC50 (A*6801): 203 nM | IC50 (HLA-A3.2 (A*0301)): 816 nM

CC[C@H](C)[C@H](NC(=O)[C@H](CC(C)C)NC(=O)[C@@H](N)C(C)C)C(=O)N[C@@H](CC(C)C)C(=O)N[C@@H](C)C(=O)N[C@@H](CC(C)C)C(=O)N[C@@H](CC(C)C)C(=O)N[C@@H](CCCNC(=N)N)C(=O)N[C@@H](Cc1ccc(O)cc1)C(=O)N[C@@H](CCCCN)C(=O)O [Peptide 88.0144]
IC50 (A31 (A*3101)): 285 nM

CC(C)C[C@H](NC(=O)[C@H](C)NC(=O)[C@@H](N)Cc1c[nH]cn1)C(=O)N[C@@H](Cc1ccccc1)C(=O)N[C@H](C(=O)N[C@@H](C)C(=O)N[C@@H](CCC(N)=O)C(=O)N[C@@H](CCC(=O)O)C(=O)N[C@@H](C)C(=O)N[C@@H](CCCCN)C(=O)N[C@@H](CCC(N)=O)C(=O)N[C@@H](Cc1c[nH]cn1)C(=O)N[C@@H](CCCNC(=N)N)C(=O)N[C@@H](CC(=O)O)C(=O)N[C@@H](C)C(=O)O)[C@@H](C)O [Peptide 89.0001]
IC50 (DRB1*0802): 14200 nM

CC[C@H](C)[C@H](NC(=O)[C@H](CC(N)=O)NC(=O)[C@@H](NC(=O)[C@@H](NC(=O)[C@H](CC(C)C)NC(=O)[C@H](CC(C)C)NC(=O)[C@@H](NC(=O)[C@@H]1CCCN1C(=O)[C@@H]1CCCN1C(=O)[C@H](CS)NC(=O)[C@H](CCCCN)NC(=O)[C@H](CC(C)C)NC(=O)[C@H](CCC(N)=O)NC(=O)[C@@H](NC(=O)[C@@H](N)CC(C)C)[C@@H](C)CC)[C@@H](C)CC)[C@@H](C)O)[C@@H](C)O)C(=O)O [Peptide 89.0038]
IC50 (DRB1*0802): 1170 nM

CC[C@H](C)[C@H](NC(=O)[C@H](Cc1c[nH]c2ccccc12)NC(=O)[C@H](CCC(=O)O)NC(=O)[C@@H]1CCCN1C(=O)[C@@H](N)[C@@H](C)O)C(=O)N[C@@H](CCC(=O)O)C(=O)N[C@@H](CCCNC(=N)N)C(=O)N[C@@H](CCC(N)=O)C(=O)N[C@H](C(=O)N[C@H](C(=O)N[C@@H](CC(C)C)C(=O)N[C@@H](CCC(N)=O)C(=O)N[C@@H](Cc1c[nH]cn1)C(=O)N[C@@H](CO)C(=O)N[C@@H](Cc1ccccc1)C(=O)O)C(C)C)[C@@H](C)O [Peptide 89.0048]
IC50 (DRB1*0802): 2360 nM

CC[C@H](C)[C@H](NC(=O)[C@H](Cc1c[nH]c2ccccc12)NC(=O)[C@H](CCC(=O)O)NC(=O)[C@@H]1CCCN1)C(=O)N[C@@H](CC(=O)O)C(=O)N[C@@H](CCCNC(=N)N)C(=O)N[C@@H](CC(C)C)C(=O)N[C@H](C(=O)N[C@H](C(=O)N[C@@H](CC(C)C)C(=O)N[C@@H](CCC(N)=O)C(=O)N[C@@H](Cc1c[nH]cn1)C(=O)N[C@@H](CO)C(=O)N[C@@H](Cc1ccccc1)C(=O)N[C@@H](CC(N)=O)C(=O)O)C(C)C)[C@@H](C)O [Peptide 89.0070]
IC50 (DRB1*0802): 3510 nM

CC[C@H](C)[C@H](NC(=O)[C@@H](NC(=O)[C@H](CCC(N)=O)NC(=O)CN)C(C)C)C(=O)N[C@H](C(=O)N[C@@H](CS)C(=O)N1CCC[C@H]1C(=O)N[C@@H](C)C(=O)N[C@@H](CO)C(=O)N[C@H](C(=O)N[C@@H](CO)C(=O)N[C@@H](CO)C(=O)N[C@@H](CC(N)=O)C(=O)N[C@@H](CCC(=O)O)C(=O)N[C@H](C(=O)O)C(C)C)C(C)C)C(C)C [Peptide 90.0016]
IC50 (DRB1*0802): 13100 nM

CC(C)C[C@H](NC(=O)[C@@H](NC(=O)[C@H](Cc1c[nH]cn1)NC(=O)[C@H](CC(C)C)NC(=O)[C@@H](NC(=O)[C@H](CCC(N)=O)NC(=O)[C@H](C)NC(=O)[C@H](CC(=O)O)NC(=O)[C@H](CC(N)=O)NC(=O)[C@H](Cc1c[nH]cn1)NC(=O)[C@@H](NC(=O)[C@H](CCC(=O)O)NC(=O)[C@H](CCC(N)=O)NC(=O)[C@H](C)N)C(C)C)C(C)C)C(C)C)C(=O)N[C@@H](CCCCN)C(=O)O [Peptide 90.0047]
IC50 (DRB1*0802): 9340 nM

CC[C@H](C)[C@H](NC(=O)[C@@H](NC(=O)[C@H](C)NC(=O)[C@H](CCC(=O)O)NC(=O)[C@@H](NC(=O)[C@H](CCC(=O)O)NC(=O)[C@H](Cc1ccccc1)NC(=O)[C@H](Cc1c[nH]c2ccccc12)NC(=O)CNC(=O)[C@@H](N)[C@@H](C)O)C(C)C)C(C)C)C(=O)N[C@@H](CCC(=O)O)C(=O)N[C@@H](CCCNC(=N)N)C(=O)N[C@@H](CCCNC(=N)N)C(=O)N[C@H](C(=O)NCC(=O)O)[C@@H](C)O [Peptide 90.0075]
IC50 (DRB1*0802): 9320 nM

C[C@H](NC(=O)[C@H](CC(=O)O)NC(=O)[C@H](CCC(=O)O)NC(=O)[C@H](CCCCN)NC(=O)[C@H](Cc1ccccc1)NC(=O)[C@H](Cc1ccc(O)cc1)NC(=O)[C@H](CCCCN)NC(=O)[C@H](Cc1ccccc1)NC(=O)[C@@H](N)Cc1ccc(O)cc1)C(=O)N[C@@H](CCCCN)C(=O)N[C@@H](CCCCN)C(=O)N[C@@H](Cc1ccc(O)cc1)C(=O)N[C@@H](CO)C(=O)N[C@@H](CCCCN)C(=O)N[C@H](C(=O)O)[C@@H](C)O [Peptide 90.0253]
IC50 (DRB1*0802): 569 nM

CC(C)C[C@H](NC(=O)[C@H](CC(C)C)NC(=O)[C@H](CS)NC(=O)[C@@H](NC(=O)[C@@H](N)CCCNC(=N)N)C(C)C)C(=O)N[C@@H](Cc1ccccc1)C(=O)N[C@@H](Cc1ccc(O)cc1)C(=O)N[C@@H](CO)C(=O)N[C@@H](CCCCN)C(=O)N[C@H](C(=O)N[C@@H](CCCNC(=N)N)C(=O)N[C@@H](CCCCN)C(=O)N[C@@H](Cc1ccc(O)cc1)C(=O)N[C@@H](CCCNC(=N)N)C(=O)N[C@@H](Cc1ccc(O)cc1)C(=O)O)C(C)C [Peptide 1543.54]
IC50 (DRB1*0802): 269 nM

CC(C)C[C@H](NC(=O)[C@H](Cc1c[nH]cn1)NC(=O)[C@H](CO)NC(=O)[C@H](CO)NC(=O)[C@H](Cc1c[nH]cn1)NC(=O)[C@@H](NC(=O)[C@@H](N)CCCNC(=N)N)[C@@H](C)O)C(=O)N[C@@H](CCCCN)C(=O)N[C@@H](CO)C(=O)N[C@@H](CCCCN)C(=O)N[C@@H](CCCCN)C(=O)O [Peptide 1556.76]
IC50 (A31 (A*3101)): 195 nM

CC(C)C[C@H](NC(=O)CNC(=O)[C@H](CCCNC(=N)N)NC(=O)[C@H](Cc1c[nH]cn1)NC(=O)[C@H](CO)NC(=O)[C@@H](NC(=O)[C@H](CS)NC(=O)[C@@H](NC(=O)[C@H](C)N)[C@@H](C)O)C(C)C)C(=O)N[C@@H](Cc1ccc(O)cc1)C(=O)O [Peptide 1580.22]
IC50 (HLA-A1 (A*0101)): 421 nM

CC(C)C[C@H](NC(=O)[C@H](C)NC(=O)[C@H](C)NC(=O)[C@H](C)NC(=O)[C@@H](NC(=O)[C@@H](N)CO)[C@@H](C)O)C(=O)N[C@@H](Cc1ccc(O)cc1)C(=O)N[C@@H](Cc1c[nH]c2ccccc12)C(=O)N[C@@H](Cc1ccc(O)cc1)C(=O)N[C@@H](CCCCN)C(=O)O [Peptide 1587.06]
IC50 (A*3301): 138 nM

CC[C@H](C)[C@H](NC(=O)[C@H](Cc1c[nH]c2ccccc12)NC(=O)[C@H](CCC(N)=O)NC(=O)[C@H](CO)NC(=O)[C@H](CCSC)NC(=O)[C@H](CO)NC(=O)[C@H](CCSC)NC(=O)[C@H](CCC(N)=O)NC(=O)[C@@H](N)CCCCN)C(=O)N[C@@H](CCCCN)C(=O)O [Peptide 1587.09]
IC50 (A*3301): 11400 nM

CC[C@H](C)[C@H](NC(=O)[C@H](CCCCN)NC(=O)[C@H](CC(=O)O)NC(=O)[C@@H](NC(=O)[C@@H](N)CC(C)C)[C@@H](C)O)C(=O)N[C@H](C(=O)N[C@@H](CC(=O)O)C(=O)N[C@@H](Cc1c[nH]cn1)C(=O)N[C@@H](Cc1ccc(O)cc1)C(=O)O)[C@@H](C)CC [Peptide 1593.09]
IC50 (HLA-A1 (A*0101)): 195 nM

CC[C@H](C)[C@H](NC(=O)[C@H](CCC(N)=O)NC(=O)[C@H](CC(=O)O)NC(=O)[C@H](CO)NC(=O)[C@@H](N)CC(=O)O)C(=O)N[C@@H](CC(C)C)C(=O)N[C@H](C(=O)NCC(=O)N[C@@H](Cc1ccc(O)cc1)C(=O)O)C(C)C [Peptide 1593.12]
IC50 (HLA-A1 (A*0101)): 183 nM

CC[C@H](C)[C@H](NC(=O)[C@H](CC(C)C)NC(=O)[C@H](C)NC(=O)[C@@H](NC(=O)[C@H](CC(C)C)NC(=O)[C@H](C)NC(=O)[C@@H](N)CC(C)C)[C@@H](C)O)C(=O)N[C@@H](CCCCN)C(=O)N1CCC[C@H]1C(=O)N[C@@H](CCCCN)C(=O)O [Peptide 9017.0227]
IC50 (A31 (A*3101)): 1170 nM

CC[C@H](C)[C@H](NC(=O)[C@H](Cc1ccc(O)cc1)NC(=O)[C@@H](NC(=O)[C@@H](NC(=O)[C@@H](NC(=O)[C@@H](N)Cc1c[nH]c2ccccc12)[C@@H](C)O)[C@@H](C)CC)C(C)C)C(=O)N[C@@H](CCC(=O)O)C(=O)N[C@@H](Cc1ccc(O)cc1)C(=O)N[C@@H](CCCNC(=N)N)C(=O)N[C@@H](CCCCN)C(=O)O [Peptide 9017.0243]
IC50 (A*3301): 3510 nM
